Most compounds without a hit are left out; they make up all but 3.7% or so of the library.
A549 viability: kills or reduces viability of A549 cells in Nrf2 counter-screen | A549 ARE-Fluc cells, CellTiter-Fluor viability, 18-24 h | Potency, µM (top dose mostly 46 µM), without a hit: at the highest dose activity change, negative = cytotoxicity, actives largely listed as inhibitors | actives 0.16% (n = 390,000); further: potency means the concentration at half of the fitted maximal effect; on the % scale 0 is the no-effect control and ±100 the full control effect
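A549 ARE_Fluc cells in 5% FBS OPTI-MEM were exposed to compounds in concentration-response for 18-24 h at 37 deg C. Viability was read by CellTiter-Fluor fluorescence (Ex 405/Em 525) after 30 min, before the luciferase read.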
Nrf2 inh: blocks Nrf2 signaling | A549 ARE-Fluc reporter, luciferase luminescence, 18-24 h | Potency, µM (highest dose often 46 µM), for the others: at the highest dose activity change, negative = inhibition, actives largely listed as inhibitors | actives 2.1% (n = 360,000) | AID 504444; further: potency means the concentration at half of the fitted maximal effect; on the % scale 0 is the no-effect control and ±100 the full control effect; nearly all actives have a fitted effect of over 60% in size
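Two sequential reads on A549 ARE_Fluc cells exposed to compound for 18-24 h: a CellTiter-Fluor fluorescence read for viability, then a luciferase luminescence read for Nrf2/ARE activity.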
Nrf2 activator: Nrf2 pathway activation; AREc32 ARE-luciferase reporter (MCF7-derived line), luminescence, 24 h; Potency, µM (highest dose often 46.1 µM), inactives show at the highest dose activation, most hits filed as activators; actives 0.31% (n = 410,000); AID 624171; further: potency means the concentration at half of the fitted maximal effect; % of control where 0% means no effect; nearly all actives have a fitted effect of over 65% in size
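Luminescent ARE reporter assay in AREc32_Fluc cells: overnight plating at 37 deg C, 24 hr compound incubation, Steady-Glo added, 30 min RT before reading.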
miR-21 reporter: miR-21 reporter, rising signal | AID 2288 | HeLa miR-21 FLuc reporter, luciferase, 48 h | 340,000 tested, under 10 active | Potency, µM (titrated, usually from 38.3 µM), for the others: at the top dose reporter change, positive = more light; active = well fitted rising curve with a large enough effect; inconclusive = small, poorly fitted or top-dose-only effect; inactive = no such curve, though single readings can be large or run the other way;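 also: % of control where 0% means no effect; miR-21 action dims this reporter so a rising signal means less miR-21 action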
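HeLa cells stably expressing CMV-driven firefly luciferase with a downstream miR-21 binding sequence, endogenously expressing miR-21, were treated with titrations (up to about 40uM final) for 48 hours at 37 degree Celsius. Luciferase luminescence was read after lysis.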
ClpP mod: qHTS Assay for Activators of ClpP. purified B. subtilis ClpP, FRET peptide cleavage, 20 min. Potency, µM (series often up to 57.5 µM), without a hit: top-dose activity change, negative = active. ATP-dependent Clp protease proteolytic subunit (Bacillus subtilis (strain 168)), P80244. actives 1.9% (n = 340,000). AID 651965, 2013; active means well fitted falling curve with a large enough effect; inconclusive means small, poorly fitted or top-dose-only effect; inactive means no such curve, though single readings can be large or run the other way; further: potency means the concentration at half of the fitted maximal effect; the source files actives as falling curves though it sought activators and does not explain the sign; nearly all actives have a fitted effect of over 65% in size
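Buffer: 100 mM Tris/HCl pH8, 100 mM KCl, 0.05% low protease BSA, 2.5% glycerol, 0.01% Tween-20. ClpP 10 microg/mL final; 20 min RT; delta FRET normalized to ADEP and DMSO controls.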
TCR act: activators of T cell receptors; primary human leukocytes, anti-CD3, IL-2 HTRF, 48 h; Potency, µM (highest dose often 9.22 µM), for inactives: at the highest dose activation of IL-2 secretion, hits mostly activators; 330,000 tested, under 10 active; AID 504894; further: % of control where 0% means no effect
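IL-2 release read by HTRF sandwich (Eu cryptate donor, d2 acceptor, 665 nm emission) after 48 hr exposure of primary human leukocytes to compound together with anti-CD3 beads in the absence of co-stimulatory signals.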
The depositor's hits bear a star; ? = inconclusive; nt = not tested or not shown; [ ] = dose if it differs, or a comment. Unless noted, the call rests on the fitted dose curve; in most records, active means well fitted curve in the direction sought with a large enough effect; inconclusive means small, poorly fitted or top-dose-only effect, or another doubt; inactive means no such curve, though single readings can be large; an effect the other way counts as inactive or inconclusive.

#1 Cc1cccc(NS(=O)(=O)c2ccc(NC(=O)N3CCCCC3)cc2)c1
#2 Cc1cccc(NS(=O)(=O)c2ccc3c(c2)CCN3C(=O)C2CCC2)c1
#3 Fc1ccccc1-n1ncc2c1ncn1nc(-c3ccccc3Cl)nc21
#4 COc1ccc(NC(=O)COC(=O)C2CCC2)cc1Cl
#5 O=C(CN1CCOCC1)Nc1nc(-c2ccc3c(c2)CCN3S(=O)(=O)c2ccccc2)cs1
#6 Cc1sc(NC(=O)CN2CCOCC2)nc1-c1ccc2c(c1)CCN2S(=O)(=O)c1ccccc1
#7 CC(=O)Nc1ccc2nc(NC(=O)c3ccc([N+](=O)[O-])s3)sc2c1
#8 Cc1nc2cc(NC(=O)c3ccc([N+](=O)[O-])s3)ccc2s1
#9 CCOC(=O)C1=C(O)/C(=C\c2ccc(CNC(=O)C(=O)Nc3ccc(C)c(C)c3)o2)N=C1C
#10 C=CCC[C@@H](Cc1ccc(F)cc1)C(=O)OC[C@@H](NC(=O)[C@@H](CC=C)CC(=O)N[C@@H](CO)Cc1ccccc1)C(C)(C)C
compound no. | 1 | 2 | 3 | 4 | 5 | 6 | 7 | 8 | 9 | 10
A549 viability | -19% | -17% | -9% | 1% | -14% | -13% | nt | -12% | nt | ?
Nrf2 inh | 18µM* | 15µM* | ? | 4% | ? | 2.6µM* | nt | 6.5µM* | nt | 21µM*
Nrf2 activator | -1% | -1% | 5% | 2% | 5% | 4% | nt | 6% | nt | -1%
miR-21 reporter | 13% | 22% | -70% | 1% | 25% | ? | -20% | -18% | -3% | nt
ClpP mod | 2% | 0% | -5% | 1% | 2% | -3% | nt | 0% | nt | 2%
TCR act | -1% | nt | nt | -3% | -1% | 4% | nt | 2% | nt | 2%

#11 C=CCC[C@H](Cc1ccc(F)cc1)C(=O)OC[C@@H](NC(=O)[C@@H](CC=C)CC(=O)N(CCO)Cc1ccccc1)C(C)(C)C
#12 C=CCC[C@H](Cc1ccc(F)cc1)C(=O)OC[C@@H](C)NC(=O)[C@@H](CC=C)CC(=O)N[C@H](CO)Cc1ccccc1
#13 C=CCC[C@H](Cc1ccc(F)cc1)C(=O)OC[C@@H](C)NC(=O)[C@@H](CC=C)CC(=O)N[C@@H](CO)Cc1ccccc1
#14 CS(=O)(=O)c1cc([N+](=O)[O-])c(Sc2nc3ccccc3[nH]2)c([N+](=O)[O-])c1
#15 O=C(O)c1cc([N+](=O)[O-])c(Sc2nc3ccccc3[nH]2)c([N+](=O)[O-])c1
#16 CC1=C(C#N)C(C)C2=C(CC(C)(C)CC2=O)N1 (configuration not stated)
#17 CC1=C(C#N)C(c2cccnc2)C2=C(CC(C)(C)CC2=O)N1 (configuration not stated)
#18 CC1=C(C#N)C(c2ccc(O)cc2)C2=C(CC(C)(C)CC2=O)N1 (configuration not stated)
#19 c1csc(-c2nc(N3CCN(Cc4ccc5c(c4)OCCO5)CC3)c3ccccc3n2)c1
#20 O=C(O)c1cccc(-c2cccc(-c3nn4c(=O)cc(N5CCNCC5)nc4s3)c2)c1
compound no. | 11 | 12 | 13 | 14 | 15 | 16 | 17 | 18 | 19 | 20
A549 viability | 6.5µM* | ? | -2% | 23µM* | -14% | 0% | -2% | -11% | 3% | -8%
Nrf2 inh | 3.3µM* | 21µM* | -9% | nt | -26% | -4% | 3% | ? | -4% | 5%
Nrf2 activator | -5% | 0% | 5% | ? | ? | 2% | -1% | 1% | nt | nt
miR-21 reporter | nt | nt | nt | ? | -1% | -1% | -5% | 0% | nt | nt
ClpP mod | -2% | -2% | 0% | -3% | 1% | 18µM* | 14µM* | -28% | ? | nt
TCR act | -3% | 6% | -1% | -3% | -5% | 1% | -3% | -2%[46.1 µM] | nt | nt

Results in Nrf2 inh, miR-21 reporter and TCR act, for two of the compounds above:
# | Structure | Nrf2 inh | miR-21 reporter | TCR act
18 | CC1=C(C#N)C(c2ccc(O)cc2)C2=C(CC(C)(C)CC2=O)N1 (configuration not stated) | ? | 0% | -2%[46.1 µM]
13 | C=CCC[C@H](Cc1ccc(F)cc1)C(=O)OC[C@@H](C)NC(=O)[C@@H](CC=C)CC(=O)N[C@@H](CO)Cc1ccccc1 | -9% | nt | -1%

(list continues)
#21 CCOC(=O)c1c(C)[nH]c(C)c1C(=O)Cn1nnc(-c2ccccc2C)n1
#22 Cc1nn(Cc2ccccc2)c(C)c1NC(=O)CCCn1nc(C)c([N+](=O)[O-])c1C
#23 Cc1nn(Cc2ccccc2Cl)c(C)c1NC(=O)CCCn1nc(C)c([N+](=O)[O-])c1C
#24 Cc1nn(Cc2ccc(Cl)cc2)c(C)c1NC(=O)CCCn1nc(C)c([N+](=O)[O-])c1C
#25 CC(Oc1ccccc1F)C(=O)Nc1ccc(-c2nc3ccccc3s2)cc1 (configuration not stated)
#26 COc1ccccc1OC(C)C(=O)Nc1cccc(-c2nc3ccccc3s2)c1 (configuration not stated)
#27 COc1ccc(NC(=O)C#Cc2ccccc2)cc1OC
#28 COc1ccc(-c2nc(SCC(=O)Nc3ccc4c(c3)OCCO4)c(-c3ccc(F)cc3)[nH]2)cc1
#29 COc1cccc(-c2nc(SCC(=O)Nc3ccc4c(c3)OCCO4)c(-c3ccc(C)cc3)[nH]2)c1
#30 COc1cccc(N2CCN(CC(=O)Nc3nnc(-c4ccccc4)s3)CC2)c1
compound no. | 21 | 22 | 23 | 24 | 25 | 26 | 27 | 28 | 29 | 30
A549 viability | -28% | 14% | 4% | ? | 0% | 1% | -8% | 0% | -18% | -20%
Nrf2 inh | 13µM* | -25% | 12% | 21µM* | 16% | 11% | 8.2µM* | 1% | ? | 12µM*
Nrf2 activator | 0% | 1% | 0% | 4% | 0% | 10% | 12%[9.22 µM] | 0% | 4% | 2%
miR-21 reporter | -5% | -7% | -6% | 4% | -55% | -24% | 8% | -45% | ? | 23%
ClpP mod | -2% | 28µM* | 0% | -1% | 3.2µM* | -18% | nt | -5% | 28µM* | -3%
TCR act | -1% | -5%[46.1 µM] | 1% | 4%[46.1 µM] | nt | nt | 4% | nt | nt | -17%

#31 COc1cccc(N2CCN(CC(=O)c3c(C)[nH]c4ccccc34)CC2)c1
#32 O=C(CN1C(=O)C2CCCCN2c2ccc(C(=O)N3CCCC3)cc21)NCc1cccc(Cl)c1 (configuration not stated)
#33 COc1ccc(-c2nnc(NC(=O)CSc3ccccc3)s2)cc1OC
#34 O=C(CSc1nc(-c2ccc(F)cc2)[nH]c1-c1ccccc1)Nc1ccccc1
#35 COc1ccc(-c2nc(SCC(=O)Nc3ccccc3)c(-c3ccc(F)cc3)[nH]2)cc1OC
#36 COc1ccc(-c2nnc(NC(=O)CSc3ccc(C)cc3)s2)cc1OC
#37 COc1ccc(NC(=O)CSc2ncccc2C(=O)OC(C)C)cc1OC
#38 COc1ccc(NC(=O)CSc2ccccn2)cc1OC
#39 CCC(=O)N1CCc2cc(S(=O)(=O)NC(Cc3ccccc3)C(=O)Nc3ccccc3C)ccc21 (configuration not stated)
compound no. | 31 | 32 | 33 | 34 | 35 | 36 | 37 | 38 | 39
A549 viability | ? | -1% | 9% | -24% | ? | 1% | 1% | -2% | 11%
Nrf2 inh | 12µM* | nt | -6% | 21µM* | 15µM* | 6% | 9.2µM* | 11% | 4%
Nrf2 activator | 4% | 0% | -1% | 3% | 0% | 3% | 2% | 1% | 0%
miR-21 reporter | 0% | 2% | -6% | 27% | 27% | -3% | -1% | -11% | -10%
ClpP mod | -1% | -16% | 22µM* | ? | -11% | -15% | -2% | 0% | -1%
TCR act | 4% | nt | -3%[46.1 µM] | nt | nt | -4%[46.1 µM] | -5% | -3% | nt

Among those listed so far, two contain a COOH group:
#15 O=C(O)c1cc([N+](=O)[O-])c(Sc2nc3ccccc3[nH]2)c([N+](=O)[O-])c1
#20 O=C(O)c1cccc(-c2cccc(-c3nn4c(=O)cc(N5CCNCC5)nc4s3)c2)c1
compound no. | 15 | 20
A549 viability | -14% | -8%
Nrf2 inh | -26% | 5%
Nrf2 activator | ? | nt
miR-21 reporter | -1% | nt
ClpP mod | 1% | nt
TCR act | -5% | nt
